Laboratory results published in publication PMC11052790 (Clinical Pharmacokinetics, 2024).

The chains behind the UniProt entries cited, without tags or fusion partners.
UniProt P33261, whole entry: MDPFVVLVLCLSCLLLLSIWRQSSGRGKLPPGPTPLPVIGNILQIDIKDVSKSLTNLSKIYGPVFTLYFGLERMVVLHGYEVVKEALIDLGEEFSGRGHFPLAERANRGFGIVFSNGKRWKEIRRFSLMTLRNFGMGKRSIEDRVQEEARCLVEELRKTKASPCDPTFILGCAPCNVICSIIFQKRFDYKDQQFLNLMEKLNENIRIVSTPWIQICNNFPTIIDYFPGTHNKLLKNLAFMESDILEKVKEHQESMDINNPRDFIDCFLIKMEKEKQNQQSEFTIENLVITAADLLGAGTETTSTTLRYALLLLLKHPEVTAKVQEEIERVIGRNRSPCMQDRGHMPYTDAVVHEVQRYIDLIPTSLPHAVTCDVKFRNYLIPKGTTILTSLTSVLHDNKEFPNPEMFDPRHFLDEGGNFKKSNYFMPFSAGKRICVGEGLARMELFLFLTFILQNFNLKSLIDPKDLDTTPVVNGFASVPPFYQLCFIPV

Target: CYP2C19 (Homo sapiens, UniProt P33261)
Details: days 4 and 5 of ritonavir treatment vs baseline

## COc1ccc2[nH]c([S+]([O-])Cc3ncc(C)c(OC)c3C)nc2c1 (stereo not shown) [Omeprazole, omeprazole]
  Reduction of molar AUC0–4 ratio of omeprazole and 5-OH-omeprazole: 32%
